Antibody variant affinities, Ab-14 light chain, assay 1

Source: Engelhart et al. 2022 (doi:10.1038/s41597-022-01779-4), MIT Lincoln Laboratory and A-Alpha Bio; data file from the FLAb repository.

Target: peptide PDVDLGDISGINAS, taken from heptad repeat 2 (HR2) of SARS-CoV-2 spike.

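The parent was found by panning a naive human phage display library on the peptide. The library (AAYL50) carries one to three amino acid substitutions per variant, with no insertions or deletions. In AlphaSeq, yeast of one mating type display the scFv and yeast of the other type display the target. After mating in shaken culture at 30 °C for 16 h, diploids were selected and their barcode pairs sequenced. A regression on co-assayed BCL2-family reference pairs converts the normalised counts of each replicate to an apparent Kd. The assay was run in three technical replicates.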

Each scFv is VH, the linker GGGGSGGGGSGGGGS, VL, as in the parent Ab-14, and differs from it in the CDRs of the light chain only.
VH: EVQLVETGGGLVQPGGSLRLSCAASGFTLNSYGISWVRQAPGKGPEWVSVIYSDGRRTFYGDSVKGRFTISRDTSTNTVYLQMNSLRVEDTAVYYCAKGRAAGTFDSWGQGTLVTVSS
VL: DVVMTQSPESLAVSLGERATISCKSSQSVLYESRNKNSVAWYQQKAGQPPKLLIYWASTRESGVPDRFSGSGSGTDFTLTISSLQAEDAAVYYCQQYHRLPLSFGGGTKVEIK

Substitutions are numbered in sequence along the VL above, starting at 1 (not Kabat).
Each Kd is an estimate from the mating assay, the geometric mean of the replicates in which the pair was seen; lower is stronger.
An entry "not detected" has no value in the source: the pair was not observed among the diploids in any replicate. This suggests poor binding but is not conclusive.

changes	Kd	replicates with signal	signal with controls
W56P/Q95Y/Q96A	4.1 µM	1/3	2/9
A57W/Y97P/H98W	not detected	0/3	1/9
K24Q/L30R/E61I	67 nM	3/3	1/9
S38M/S62E/Q95D	57 nM	3/3	0/9
S28A/N35E/S38C	590 nM	2/3	0/9
Q27K/V29K/Y97G	580 nM	2/3	2/9
R34S/R99I	37 µM	1/3	2/9
E32W/A40Q/L102T	5.7 µM	1/3	0/9
S38G/E61L/P101N	not detected	0/3	0/9
L30G/T59F/L102M	810 nM	3/3	1/9
Y31M/S33A/P101D	not detected	0/3	0/9
V39M/P101S	120 µM	2/3	3/9
S26D/R34S/S103L	9.6 nM	3/3	3/9
Q27T/T59K/S103P	380 µM	2/3	4/9
S25C/R34K/H98I	49 nM	3/3	2/9
K36P/S38H	18 nM	3/3	0/9
V39D/A57W/R99K	18 µM	1/3	1/9
E32S/R34C/K36F	980 nM	1/3	1/9
S26E/V29D/S58C	30 µM	1/3	1/9
R34I/N37Q/Q96E	250 nM	3/3	1/9
S33D/S38P	22 nM	3/3	4/9
A57V/S58P/R99V	310 µM	1/3	3/9
Q96S/H98I/L102I	1.5 µM	3/3	0/9

Second part, the sequence after the result:

Kd	replicates with signal	signal with controls	changes
not detected	0/3	0/9	S38T/A40Y/R60V
17 nM	3/3	7/9	S25C/S33R
not detected	0/3	2/9	A40H/E61G/S62H
not detected	0/3	0/9	S25M/V29Y/Y97Q
55 nM	2/3	0/9	R34H/S62Q/Q96L
not detected	0/3	0/9	S62W/Q96M/L102V
not detected	0/3	0/9	N35M/A57F/Q96K
430 nM	3/3	3/9	K36A/A57V
240 nM	3/3	1/9	S33E/S58Y/H98E
150 nM	3/3	2/9	E32P/N35T
not detected	0/3	0/9	K24V/K36Q
1.1 nM	3/3	2/9	S26P/N37Q/W56A
93 nM	3/3	2/9	R34K/W56C/S62E
780 nM	3/3	1/9	S25K/W56C/T59E
640 nM	2/3	1/9	S26K/Q27P/N37E
110 µM	2/3	2/9	Q27D/V29R/E61D
36 nM	3/3	0/9	V29L/S58G
19 µM	1/3	1/9	A40P/E61C/Y97S
110 µM	3/3	5/9	N37F/E61N/Q95W
36 µM	3/3	3/9	S33A/N35A/S58C
22 nM	3/3	1/9	V29T/S38E/S62P
6.1 µM	2/3	1/9	K24I/K36Y/A40G
920 µM	2/3	3/9	V39S/L102K
71 µM	1/3	4/9	S38T/V39R/H98A

The opening 3 entries, copied out:

| changes | Kd | replicates with signal | signal with controls |
|---|---|---|---|
| W56P/Q95Y/Q96A | 4.1 µM | 1/3 | 2/9 |
| A57W/Y97P/H98W | not detected | 0/3 | 1/9 |
| K24Q/L30R/E61I | 67 nM | 3/3 | 1/9 |

Three control strains display no target. For library AAYL50, 18% of the pairings with them gave a signal, with a median of 15 µM and one signal in twenty below 970 nM, so weak values seen in few replicates may be background. The control count says in how many pairings with the empty strains this scFv gave a signal.